# Experimental melting point values from OPERA 2.9

Source: data files of OPERA 2.9 (Mansouri et al.), github.com/kmansouri/OPERA.

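OPERA's authors assembled the values from existing databases and did not measure them anew. The files give a single number for a compound and property, which may rest on several reports. Method and conditions are not stated for these values. A value may pool stereoisomers or salt forms, and the file does not say which form was measured. Some upstream entries may be estimates or bounds without being marked so.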

Melting points are in °C. The databases behind each value are named after "via".

- O=C(CCl)c1c[nH]c2ccccc12 [3-Chloroacetylindole]: melting point 184 °C (via OCHEM)
- Cc1ccc(NC(=O)CCl)cc1Cl [2-chloro-N-(3-chloro-4-methylphenyl)acetamide]: melting point 74 °C (via OCHEM)
- S=c1[nH]nc(-c2ccco2)o1 [5-(2-furyl)-1,3,4-oxadiazole-2-thiol]: melting point 174 °C (via OCHEM)
- CC(=O)c1ccc(OCCCC(=O)O)cc1 [4-(4-Acetyl-phenoxy)-butyric acid]: melting point 137 °C (via OCHEM)
- CCCCOc1cc(C=O)ccc1OC [3-Butoxy-4-methoxybenzaldehyde]: melting point 40 °C (via OCHEM)
- CCCCOc1cc(C(=O)NCCN(CC)CC)c2ccccc2n1 [Dibucaine]: melting point 100 °C (via PubChem)
- COc1ccc(OC)c(NC(=O)CCl)c1 [Acetanilide, 2-chloro-2',5'-dimethoxy-]: melting point 170 °C (via OCHEM)
- COc1cc(OC)cc(C(=O)Nc2ccc(O)c(C(=O)O)c2)c1 [5-(3,5-Dimethoxybenzamido)-2-hydroxybenzoic acid]: melting point 242 °C (via OCHEM)
- O=C1CCCc2cc(C(=O)CCl)ccc2N1 [7-(Chloroacetyl)-1,3,4,5-tetrahydro-2H-1-benzazepin-2-one]: melting point 155 °C (via OCHEM)
- CC(C)(C)C1CCc2sc(C(=O)O)cc2C1 (stereo not given): melting point 170 °C (via OCHEM)
- CC(C)c1ccc(C(=O)CC#N)cc1 [3-(4-isopropylphenyl)-3-oxopropanenitrile]: melting point 92 °C (via OCHEM)
- NC(=S)C1CCCC1 [Cyclopentanecarbothioamide]: melting point 85 °C (via OCHEM)
- Nc1ccc(N2CCC(O)CC2)cc1 [1-(4-Aminophenyl)piperidin-4-ol]: melting point 172 °C (via OCHEM)
- Fc1cc2nc[nH]c2cc1F [5,6-Difluorobenzimidazole]: melting point 160 °C (via OCHEM)
- O=C(O)C1CCN(S(=O)(=O)c2ccccc2)CC1 [1-(Benzenesulfonyl)piperidine-4-carboxylic acid]: melting point 157 °C (via OCHEM)